The values below are quoted from earlier work in patent publication US20070237796A1, “Stable High Pl Hydrogel Compositions” (priority 2003, published 2007).

The structures appear in SMILES notation.

By pKa is commonly meant the pH at which an ionisable group is half protonated. Consider `COOCC(O)COOC`, for which the pKa is 13.7.
